Assay results as given in publication PMC10813319 (Biomedicines, 2024).

Test system: developing synapses (PSD95/VGLUT1 contacts) in Day 55 human neurons

C[C@H](O)[C@@H](N)C(=O)N[C@@H](C(=O)N[C@H](CC(N)=O)C(=O)N[C@H](Cc1ccc(O)cc1)C(=O)N[C@@H](C(=O)O)[C@H](C)O)[C@H](C)O [RAP-103]
Aβd/t-induced decline in developing synapses, human neurons (Aβd/t ± RAP-103 0.1 nM for 4–5 days, PSD95/VGLUT1 contacts normalized to MAP2 area): completely prevented
Effect of RAP-103 alone on developing synapses, human neurons (RAP-103 0.1 nM alone for 4–5 days): no alteration in developing synapses
